Results published in patent US12491249B2, “Methods for manufacturing phthalocyanine dye conjugates and stable conjugates” (Rakuten Medical, Inc., priority 2015, dated 2025).

What was measured:
head and neck cancer = test: Photoimmunotherapy of a subject with head and neck cancer (IV conjugate, then 690 nm light); assay type: in vivo; conditions: follow up Day 4
Experimental: The packaging of each vial containing the conjugate was opened and the contents of that vial were placed into a sterile IV bag. The process of opening each individual vial and placing the contents into the IV bag was repeated until the desired dose of conjugate for infusion was achieved. Each vial was opened separately and placed into the IV bag so as to reduce the exposure of the drug product to ambient room light. The process was performed in less than 15 min. The IV bag was covered at all times by an opaque sleeve to protect the conjugate from light exposure. After preparation, the IV bag was stored at 2-8° C.
The subject was administered the conjugate via IV infusion over 2 hours on Day 1. During the infusion, the lighting in the treatment room was less than 200 lux of fluorescent light. Any windows in the room were covered with shades. The IV bag was covered during the administration by an opaque sleeve to protect the conjugate from light exposure. Any light exposure was limited to less than 5 minutes.
To induce photoimmunotherapy, one light application of with a light having a wavelength of 690 nm was performed at 24 hours±2 h (Day 2) post conjugate administration.

BxPC3 cells = test: PIT killing of BxPC3 cells by light pre-exposed conjugate (CellTox Green); assay type: cell-based
THP1 cells = test: PIT killing of Fc receptor-expressing target cells; assay type: cell-based, Human; conditions: 500 ng/mL
Experimental: THP1 cells (ATCC, TIB-202) grown in complete RPMI 1640 medium were plated at 5000 cells in 100 μL total volume per well in a 96 well tissue culture plate for adherence overnight. The viability of the cells prior to plating was checked via trypan blue exclusion method and >95% cells were viable.
To induce killing, cells in each group were subjected to 690 nm laser light at a dose of 32 J/cm2. The controls represented wells corresponding to the groups described above but not treated with light. Cell killing was assessed using CellTox Green as described substantially as described Example 9. CellTox Green dye (1×) was added to the wells and cells were incubated for 24 hours at 37° C. in an incubator. The dye was also added to couple of wells just containing 100 μL of the medium for background subtraction later. After the incubation, the tissue culture plate was immediately read on a plate reader. […] The plate was then read again to obtain values for 100% cell death. For each read, the two background wells were averaged and their values subtracted from all other wells. In order to calculate the % cell death for each well, the background subtracted value from the first read was divided by the value from the second read (after lysis), and multiplied by 100.

S. aureus = test: PIT killing of bacterial cells, colony forming units; assay type: cell-based, Staphylococcus aureus; conditions: 100 μg/mL, 690 nm laser 300 J/cm^2, versus the other three groups
Experimental: The cells were then illuminated with a 690 nm laser at 0 or 300 J/cm^2. The number of remaining viable bacterial cells was determined by counting colony forming units (CFU) on BHI agar plates under the following conditions. As a control, the number of viable bacterial cells also was assessed in cells treated with cetuximab-IRDye 700DX incubation alone but without laser illumination, laser illumination alone, or untreated. Percent of viable CFU was normalized to bacterial cells with no treatment.

[1] = 160 mg/m^2 IV, 690 nm light at 24 hours

Cetuximab-IRDye 700DX: Cetuximab (anti-EGFR antibody) conjugated with IRDye 700DX NHS ester phthalocyanine dye
Response of treated tumors at follow up (head and neck cancer; 160 mg/m^2 IV over 2 hours Day 1, 690 nm light at 24 hours): all treated tumors exhibited necrosis
Adverse effects (head and neck cancer; [1]): no adverse effects
Pain (head and neck cancer; [1]): did not report any pain
Skin photosensitivity (head and neck cancer; [1]): No skin photosensitivity was detected
effect on cell death without PIT light (BxPC3 cells; all light pre-exposed samples, 1 μg/mL, 0 J/cm^2): no effect on cell death
PIT potency after green light pre-exposure (BxPC3 cells; all lux-hour doses of green light evaluated, 690 nm 32 J/cm^2, 1 μg/mL): did not result in an effect in PIT potency
PIT activity after white light pre-exposure (BxPC3 cells; pre-exposed to 3,000 Lux-Hours (500 lux for 6 hours) or more of white fluorescent light, 690 nm 32 J/cm^2, 1 μg/mL): less than 90%
cell killing (THP1 cells; 690 nm 32 J/cm^2): Maximum killing
specificity of cell killing (THP1 cells; with or without Fc receptor blocking solution, 32 J/cm^2): Fc receptor-specific killing
viable CFU (S. aureus): statistically significant CFU reduction
